This passage reports IC50 results from patent US20090118274A1, “MONOCYCLIC AMINOPROPYL TETRAHYDRO-PYRAZOLO-PYRIDINE MODULATORS OF CATHEPSIN S” (priority 2007, published 2009).

The chains behind the UniProt entries cited, without tags or fusion partners. Residues count along the entry.
UniProt P25774, 115-331: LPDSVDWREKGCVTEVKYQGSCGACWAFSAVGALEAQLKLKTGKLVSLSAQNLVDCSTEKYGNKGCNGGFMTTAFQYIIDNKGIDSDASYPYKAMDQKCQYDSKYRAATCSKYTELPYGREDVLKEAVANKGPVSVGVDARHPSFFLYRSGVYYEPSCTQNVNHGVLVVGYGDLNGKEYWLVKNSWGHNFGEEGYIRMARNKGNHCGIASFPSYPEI

The assay has as its target T1, Recombinant human cathepsin S (CatS) (Homo sapiens, UniProt P25774).
T1 construct: made in house
Put plainly: Recombinant human cathepsin S (CatS) fluorogenic substrate inhibition assay. The assay is classed as biochemical. The procedure:
Recombinant human cathepsin S (CatS) was expressed in the baculovirus system and purified in one step with a thiopropyl-sepharose column. […] The assay is run in 150 mM sodium acetate pH 5.0 containing 1.5 mM DTT and 150 mM NaCl. […] Measurements are taken every min for 20 min. The rate is calculated from the slope of the increase in fluorescence and the percent inhibition is calculated from this.

In general, IC50 refers to the midpoint of a concentration-inhibition curve. `CS(=O)(=O)N1CCc2c(c(-c3ccc(C(F)(F)F)c(CNC(=O)Oc4ccc(Cl)cc4)c3)nn2CC(O)CN2CCCC2)C1` (stereo not shown) [Example 163, {5-[1-(2-Hydroxy-3-pyrrolidin-1-yl-propyl)-5-methanesulfonyl-4,5,6,7-tetrahydro-1H-pyrazolo[4,3-c]pyridin-3-yl]-2-trifluoromethyl-benzyl}-carbamic acid 4-chloro-phenyl ester]: the IC50 was 380 nM.
